In ChEMBL document CHEMBL1134650 one finds Ki data, which are given here for 23 compounds.

Chains of the proteins cited; added tags and fusions are not shown.
UniProt P33533, whole entry: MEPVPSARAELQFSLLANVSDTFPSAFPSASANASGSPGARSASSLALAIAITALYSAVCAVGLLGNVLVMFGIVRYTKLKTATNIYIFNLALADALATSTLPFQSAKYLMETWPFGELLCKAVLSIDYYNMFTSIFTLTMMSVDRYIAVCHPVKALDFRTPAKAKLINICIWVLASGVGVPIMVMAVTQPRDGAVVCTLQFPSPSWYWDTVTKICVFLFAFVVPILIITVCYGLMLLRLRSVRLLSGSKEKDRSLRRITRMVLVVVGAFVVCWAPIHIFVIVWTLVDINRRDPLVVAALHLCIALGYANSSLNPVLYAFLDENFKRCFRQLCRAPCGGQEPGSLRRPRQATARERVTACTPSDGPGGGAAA
UniProt P34975, whole entry: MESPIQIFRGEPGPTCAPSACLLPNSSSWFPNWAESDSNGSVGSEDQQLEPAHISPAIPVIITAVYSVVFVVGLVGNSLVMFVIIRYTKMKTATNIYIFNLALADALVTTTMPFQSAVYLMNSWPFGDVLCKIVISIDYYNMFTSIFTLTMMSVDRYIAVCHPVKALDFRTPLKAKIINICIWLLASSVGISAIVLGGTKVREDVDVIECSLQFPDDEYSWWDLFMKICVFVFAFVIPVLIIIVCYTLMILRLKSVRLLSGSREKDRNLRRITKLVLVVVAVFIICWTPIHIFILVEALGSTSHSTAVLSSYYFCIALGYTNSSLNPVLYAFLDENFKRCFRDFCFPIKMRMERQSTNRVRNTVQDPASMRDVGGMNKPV
UniProt P33535, whole entry: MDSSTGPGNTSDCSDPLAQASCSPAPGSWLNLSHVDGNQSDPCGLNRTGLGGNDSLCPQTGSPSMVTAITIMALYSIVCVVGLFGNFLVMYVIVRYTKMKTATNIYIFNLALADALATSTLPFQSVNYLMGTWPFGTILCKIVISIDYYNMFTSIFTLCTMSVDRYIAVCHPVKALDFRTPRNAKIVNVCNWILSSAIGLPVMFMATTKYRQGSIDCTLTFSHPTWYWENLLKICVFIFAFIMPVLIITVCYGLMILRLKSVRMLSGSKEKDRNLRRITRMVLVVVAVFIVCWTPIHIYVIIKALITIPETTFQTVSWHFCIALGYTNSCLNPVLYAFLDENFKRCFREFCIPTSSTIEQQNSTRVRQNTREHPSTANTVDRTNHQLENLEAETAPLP

Experiment [1] deals with Delta-type opioid receptor (Rattus norvegicus, UniProt P33533). Briefly: Affinity of [H]DADLE to the delta opioid receptor from rat brain.
For experiment [2], the target named is Kappa-type opioid receptor (Rattus norvegicus, UniProt P34975). Kind of experiment: Affinity of [3H]U-69593 to opioid receptor kappa 1 from rat brain.
The next experiment addresses Mu-type opioid receptor (Rattus norvegicus, UniProt P33535). Kind of experiment: Affinity of [3H]DAMGO to the mu opioid receptor from rat brain.

Molecules are shown by their SMILES. pKi: −log10 of the molar value. “And” between values parts separate entries of the source, which are not always exact repeats. Equal entries are not always repeated.

As for `CCN(CC)C(=O)c1ccc(N(c2cccc(OC)c2)[C@@H]2CCN(CC3CC3)C[C@H]2C)cc1`, the negative-log Ki (pKi) in experiment [1] is 6.64; in experiment [2] it was less than 5.13; at Mu-type opioid receptor it was less than 5.18.
The matching figures for `C=CCN1C[C@H](C)[C@H](N(c2ccccc2)c2ccc(C(=O)N(CC)CC)cc2)C[C@@H]1C`: 7.28, 5.54 and 5.41.
The matching figures for `C=CCN1CC[C@@H](N(c2ccc(C(=O)N(CC)CC)cc2)c2cccc(OC)c2)[C@H](C)C1`: 6.42, less than 5.13 and 5.31.
Consider `C/C=C/CN1CC[C@@H](N(c2ccccc2)c2ccc(C(=O)N(CC)CC)cc2)[C@@H](C)C1`, for which the pKi in experiment [1] is 8.57 and 8.15; in experiment [2], 5.79 and < 5.13; on Mu-type opioid receptor it was 6.03 and 5.44.
As to `CCN(CC)C(=O)c1ccc(N(c2cccc(OC)c2)[C@@H]2CCN(CC=C(C)C)C[C@@H]2C)cc1`, the values for the pKi (in experiment [1]; in experiment [2]; on Mu-type opioid receptor) were 7.44, 5.22 and 5.47, respectively.
The corresponding values for `C=CCN1CC[C@@H](N(c2ccc(C(=O)N(CC)CC)cc2)c2cccc(O)c2)[C@@H](C)C1` are 8.73, 7.12 and 6.90.
The corresponding values for `CCN(CC)C(=O)c1ccc(N(c2ccccc2)[C@@H]2CCN(C/C=C/c3ccccc3)C[C@@H]2C)cc1` are 7.17, 4.87 and 5.19.
The corresponding values for `CCN(CC)C(=O)c1ccc(N(c2cccc(OC)c2)[C@@H]2CCN(C)C[C@H]2C)cc1` are 6.75, 5.20 and 5.48.
With `CCN(CC)C(=O)c1ccc(N(c2ccccc2)[C@@H]2CCN(C)C[C@@H]2C)cc1`, the figures for the pKi (in experiment [1]; in experiment [2]; on Mu-type opioid receptor) were 7.34, less than 5.22 and 6.41, respectively.
In the case of `C/C=C/CN1CC[C@@H](N(c2ccc(C(=O)N(CC)CC)cc2)c2cccc(OC)c2)[C@@H](C)C1`, the figures for the negative logarithm of the Ki (pKi) (in experiment [1]; in experiment [2]; on Mu-type opioid receptor) were 7.74, less than 5.13 and 5.49, respectively.
The corresponding values for `C=CCN1C[C@H](C)[C@H](N(c2ccccc2)c2ccc(C(=O)N(CC)CC)cc2)C[C@H]1C` are 7.73, 5.93 and 6.77.
For `CCN(CC)C(=O)c1ccc(N(c2cccc(OC)c2)[C@@H]2CCN(C)C[C@@H]2C)cc1`, the pKi in experiment [1] was 6.85; in experiment [2], less than 5.22; on Mu-type opioid receptor it was less than 5.23.
Turning to `CCN(CC)C(=O)c1ccc(N(c2cccc(OC)c2)[C@@H]2CCN(C/C=C/c3ccccc3)C[C@@H]2C)cc1`, the pKi in experiment [1] was 7.03; in experiment [2], less than 5.13; at Mu-type opioid receptor, less than 5.18.
The matching figures for `CCN(CC)C(=O)c1ccc(N(c2ccccc2)[C@@H]2CCN(CC=C(C)C)C[C@@H]2C)cc1`: 7.82, less than 5.13 and 5.42.
The corresponding values for `CCN(CC)C(=O)c1ccc(N(c2ccccc2)[C@@H]2CCN(CC3CC3)C[C@H]2C)cc1` are 6.71, less than 5.22 and 5.27.
Regarding `C=CCN1C[C@H](C)[C@@H](N(c2ccccc2)c2ccc(C(=O)N(CC)CC)cc2)C[C@H]1C`, the pKi in experiment [1] is 7.03; in experiment [2], 5.20; on Mu-type opioid receptor, 5.00.
The corresponding values for `C=C(C)CN1CC[C@@H](N(c2ccccc2)c2ccc(C(=O)N(CC)CC)cc2)[C@@H](C)C1` are 7.44, less than 5.13 and 5.90.
The matching figures for `CCN(CC)C(=O)c1ccc(N(c2ccccc2)[C@@H]2CCN(C)C[C@H]2C)cc1`: 6.59, less than 5.22 and 5.82.
In the case of `C=C(C)CN1CC[C@@H](N(c2ccc(C(=O)N(CC)CC)cc2)c2cccc(OC)c2)[C@@H](C)C1`, the pKi in experiment [1] was 7.14; in experiment [2] it was less than 5.13; at Mu-type opioid receptor, 5.25.
`CCN(CC)C(=O)c1ccc(N(c2cccc(OC)c2)[C@@H]2CCN(CC3CC3)C[C@@H]2C)cc1`: the pKi in experiment [1] is 7.44; in experiment [2], less than 5.13; on Mu-type opioid receptor, less than 5.18.
Take `C=CCN1CC[C@@H](N(c2ccccc2)c2ccc(C(=O)N(CC)CC)cc2)[C@@H](C)C1`: at Mu-type opioid receptor, the pKi is less than 5.31.
With `C=CCN1CC[C@@H](N(c2ccc(C(=O)N(CC)CC)cc2)c2cccc(OC)c2)[C@@H](C)C1`, the negative-log Ki (pKi) in experiment [1] is 7.66; in experiment [2], less than 5.13; on Mu-type opioid receptor, 5.27.
The matching figures for `CCN(CC)C(=O)c1ccc(N(c2ccccc2)[C@@H]2CCN(CC3CC3)C[C@@H]2C)cc1`: 7.70, 5.62 and 6.80.
